scFv variants of Ab-14 (heavy chain) against a SARS-CoV-2 spike peptide

The target is the same throughout: PDVDLGDISGINAS, from the HR2 region of SARS-CoV-2 spike.

Parent: Ab-14, a human scFv built as VH, a (GGGGS)3 linker, VL. Only the CDRs of the heavy chain vary.
VH: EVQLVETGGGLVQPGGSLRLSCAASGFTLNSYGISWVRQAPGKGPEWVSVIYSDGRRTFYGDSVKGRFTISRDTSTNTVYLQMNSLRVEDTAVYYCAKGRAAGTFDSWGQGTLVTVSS
VL: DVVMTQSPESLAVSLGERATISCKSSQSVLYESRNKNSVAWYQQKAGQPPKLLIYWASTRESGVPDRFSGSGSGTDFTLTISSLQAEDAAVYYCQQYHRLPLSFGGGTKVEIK

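The parent was found by panning a naive human phage display library on the peptide. The variants were designed computationally from a first round of random CDR variants and then made and measured. Several design methods are mixed in this list. The scFvs were displayed on barcoded MATa yeast, the peptide on MATalpha yeast. The frequency of each diploid, read from paired DNA barcodes, reflects how well the two displayed proteins bind. Scores were corrected for input abundance and mapped to Kd with protein pairs of known affinity run in the same pool. There are six technical replicates.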

The parent's heavy chain CDRs are GFTLNSYGIS, VIYSDGRRTFYGDSVK, GRAAGTFDS; each variant's own CDRs replace them letter for letter.
Each Kd is an estimate from the mating assay, the geometric mean of the replicates in which the pair was seen; lower is stronger.
"nd" means that the variant was in the library but no mating with the target was seen in any replicate; the authors take this as a sign of poor binding, and no number exists.

CDR-H1	CDR-H2	CDR-H3	Kd (apparent)	replicates with signal
GFNLNSYGIS	VIYSDGRRTFYGDKVK	GRNAGTFDS	17 nM	6/6
GFTLNSYGIS	VIYSDGRRTFYENSVK	GRASGTFDS	140 nM	3/6
GFDLNEYGIS	VIYADGKRTFYADSVK	GQVAGTFDQ	210 pM	6/6
GDSLDEYGIS	VIYADGQRKAYMDNVK	GNGQAVLFD	nd	0/6
GFNLNEYGIS	VIYADGRRTFYADSVK	GQIAGTFDS	260 pM	6/6
GFTLNSYGIS	VIYSDGRRTFYINSVK	GREAGTFDS	nd	0/6
GFTLNSYGIS	VIYSDGRRTFYGDSVK	GVSAGTFDL	nd	0/6
GFTLNEYGIS	VIESDGRRTMYTDSVK	GRFAGTFDS	nd	0/6
GFDLDSYGIS	VIYSDGRRTFYGDSVK	GRRAGWFES	160 nM	1/6
EFTLNKYGIS	VIYSDGRRTAYGDSVK	GSAAITFDA	nd	0/6
GFDLNEYGIS	VIYADGMRTVYADSVK	GQVAGTFDV	120 pM	6/6
GFELNSYGIS	VIYSDGRRTFYADSVK	GNAAGTFDS	3.7 nM	6/6
GMDIDEYGIS	VIYADGSRVFYVQDVK	GTLDVVGDV	nd	0/6
GFTLESYGIS	VIYSDGRRTFYSDSVK	GRAAGTFDS	2.6 nM	3/6
GFDLDEYGIS	VIYADGRRTFYADSVK	GTNAGTFTS	4.3 nM	6/6
GFTLNSYGIS	VIYSDGMRTFYSDSVK	GRAVGTFDS	3.2 nM	6/6
GFTLNSYGIH	VIYSDGRRTFYLDSVK	GRRAGTFDS	nd	0/6
KFDLNSYGIS	VIYSDGRRTFYGDSVK	GEAAGTFDS	150 nM	6/6
GFGLMDYGIS	VIYADGKRRSYANSVK	GAHAGTFDF	nd	0/6
GFTLNSYGIS	VIYSDGRRTFYSDSVK	GAAGGTFDT	33 nM	4/6
GFDLNEYGIS	VIYADGRRTYYVDSVK	GVNAGTFDV	1.2 nM	6/6
GFDLNEYGIS	VIYADGKRTAYADNVK	GQVAGTFDL	21 pM	6/6
GFDLNEYGIS	VIYADGQRTYYADSVK	GNVAGTFDV	nd	0/6
GFDLNEYGIS	VIYADGMRTAYVDDVK	GNVAGTFDM	1.0 nM	6/6
GFTLNSYGIS	VIYSDGRRTFYHDSVK	GRAATTFDS	nd	0/6
GFHLNGYGIS	VIRSDGRDTFYDDSVK	GQLAGTFDS	nd	0/6
GKDIEEYGVS	VIYADGKRTAYANNFK	GSNAGSFVS	46 nM	1/6
GFVLNEYGIS	VIYSDGRRTFYGDSVK	GQTAGTFDS	3.0 nM	6/6
GFDLDEYGIS	VIYADGRRTYYQDSVK	GNVAGTFDV	470 pM	6/6
GFDLNEYGIS	VIYADGRRTFYADSVK	GQTAGTFDV	210 pM	6/6

The remaining entries, values ahead:

Kd (apparent)	replicates with signal	CDR-H1	CDR-H2	CDR-H3
2.2 nM	6/6	GFSLNSYGIS	VIYSDGRRTFYGDSVK	GNQAGTFDS
nd	0/6	GFRLNEYGIS	VIYSDGRRTFYGDSVK	GRAAGTWDS
450 pM	6/6	GFDLNEYGIS	VIYADGMRTAYADNVK	GETAGTFDL
4.2 nM	1/6	GFTLNSYGIS	VIYSDGRRTFYGDSVK	GRMAGTFKI
480 pM	6/6	GFTLNEYGIS	VIYSDGRRTFYGDSVK	GREAGTFDI
nd	0/6	GFPLNSYGIS	VIYSDGRRTFYGDDVK	GRAAGTFDS
2.0 nM	6/6	GFSLNSYGIS	VIYSDGRRTFYHDSVK	GREAGTFDS
4.5 nM	6/6	GFTLNSYGIS	VIYSDGKRTFYSDSVK	GRAAGTFDS
210 pM	6/6	GFDLNEYGIS	VIYADGMRTAYADDVK	GEVAGTFDA
nd	0/6	GNDLSEYGIS	VIYADGIRTNYSQNVK	GTLGDTFTQ
620 pM	6/6	GFTLQDYGIS	VIYADGRRTFYGDSVK	GRSAGTFDS
110 pM	5/6	GFSLNSYGIS	VIYADGRRTFYGDSVK	GKAAGTFDG
170 pM	6/6	GFTLNEYGIH	VIYSDGRRTFYGDSVK	GTEAGTFDS
910 pM	6/6	GFDLNSYGIS	VIYSDGRRTFYSDSVK	GRTAGTFDA
350 nM	3/6	GFSLNSYGIS	VIYSDGRRTFYIDAVK	GRQAGTFDS
nd	0/6	GDDLENVGIS	VIYADGMRNQYAQSVK	GHTGGTFFD
270 pM	6/6	GFDLNSYGIS	VIYSDGRRTFYSDQVK	GKTAGTFDS
1.8 nM	6/6	GFELKSYGIS	VIYADGRRTFYGDSVK	GKAAGTFDS
nd	0/6	GDSLEDYGIS	VIYADGRRTAYQESVK	GLYAGMLDV
nd	0/6	GFSLEEYGIS	VIYADGKRDVYADSVK	GSESGWFDI
1.2 nM	6/6	MFDLNSYGIS	VIYSDGRRTFYADSVK	GQTAGTFDS
nd	0/6	GFTLNSYGIS	VMYSDGRRTFYADSVK	AEGAGTFVS
nd	0/6	CFTLNQYGNS	VIYSDGRRTFYSDSVK	GRAAGFFDS
nd	0/6	GFTLNSYGIS	VIYSDGRRTFYRDSVK	GREALTFDS
nd	0/6	GPSLDEYGIS	VIYADGVRQYYADDVK	GQIGNFVNY
nd	0/6	GFKLDSYGIG	VIYSDGRRTFYGDSVK	GRAAGTALS
55 nM	2/6	GFTLNDYGIS	VIYSDGRRTLVIDSVK	GRAAGTFDS
nd	0/6	GFFLNSYGRS	VIGADGRRTFYGDSGK	GRAAGTNKS
nd	0/6	GFSLNEYGIS	VIYSDGRRTFYGDSVK	GPAAGTFDM
130 pM	6/6	GFDLNEYGIS	VIYADGMRTFYADSVK	GNAAGTFNV
nd	0/6	GFNLNEYGIS	VIYSDGRRTFYGDSVK	GRAAGTFIS

As a blank, each scFv also met three strains without target: over all heavy chain designs, 1% of these pairings were detected, typically at 120 nM and seldom below 7.0 nM.
A sequence measured in both rounds can read differently, since the two assays cover different ranges.
In the paper, a design with two or fewer of six values counts as a poor binder.
The parent sequence was in this pool as ten entries: three were never detected, three once, and four in most replicates, with averages from 2.2 nM to 240 nM.

Source: Li et al. 2023 (doi:10.1038/s41467-023-39022-2), MIT Lincoln Laboratory and A-Alpha Bio; data file from the FLAb repository.